# Laboratory results reported in patent publication US20070196883.
# B1: wild type GST-PDK1 (protein)
# chain: MARTTSQLYDAVPIQSSVVLCSCPSPSMVRTQTESSTPPGIPGGSRQGPAMDGTAAEPRPGAGSLQHAQPPPQPRKKRPEDFKFGKILGEGSFSTVVLARELATSREYAIKILEKRHIIKENKVPYVTRERDVMSRLDHPFFVKLYFTFQDDEKLYFGLSYAKNGELLKYIRKIGSFDETCTRFYTAEIVSALEYLHGKGIIHRDLKPENILLNEDMHIQITDFGTAKVLSPESKQARANSFVGTAQYVSPELLTEKSACKSSDLWALGCIIYQLVAGLPPFRAGNEYLIFQKIIKLEYDFPEKFFPKARDLVEKLLVLDATKRLGCEEMEGYGPLKAHPFFESVTWENLHQQTPPKLTAYLPAMSEDDEDCYGNYDNLLSQFGCMQVSSSSSSHSLSASDTGLPQRSGSNIEQYIHDLDSNSFELDLQFSEDEKRLLLEKQAGGNPWHQFVENNLILKMGPVDKRKGLFARRRQLLLTEGPHLYYVDPVNKVLKGEIPWSQELRPEAKNFKTFFVHTPNRTYYLMDPSGNAHKWCRKIQEVWRQRYQSHPDAAVQ
# Biological target: GST-PIF (glutathione-S-transferase fusion of the C-terminal 77 amino acids of PRK2)
protein,measurement,value
B1,rate of phosphorylation of Thr308 against Ser473 of PKBα by the GST-PIF*/PDK1 complex,phosphorylates Thr308 of PKBα at twice the rate of Ser473
